The IC50 is the concentration at which inhibition is half-maximal. Read a high IC50 as a need for much substance.

Chains of the proteins cited; added tags and fusions are not shown. Lines headed by an entry give the natural chain unless they say otherwise; changes in a name come on top.
UniProt Q9UNQ0: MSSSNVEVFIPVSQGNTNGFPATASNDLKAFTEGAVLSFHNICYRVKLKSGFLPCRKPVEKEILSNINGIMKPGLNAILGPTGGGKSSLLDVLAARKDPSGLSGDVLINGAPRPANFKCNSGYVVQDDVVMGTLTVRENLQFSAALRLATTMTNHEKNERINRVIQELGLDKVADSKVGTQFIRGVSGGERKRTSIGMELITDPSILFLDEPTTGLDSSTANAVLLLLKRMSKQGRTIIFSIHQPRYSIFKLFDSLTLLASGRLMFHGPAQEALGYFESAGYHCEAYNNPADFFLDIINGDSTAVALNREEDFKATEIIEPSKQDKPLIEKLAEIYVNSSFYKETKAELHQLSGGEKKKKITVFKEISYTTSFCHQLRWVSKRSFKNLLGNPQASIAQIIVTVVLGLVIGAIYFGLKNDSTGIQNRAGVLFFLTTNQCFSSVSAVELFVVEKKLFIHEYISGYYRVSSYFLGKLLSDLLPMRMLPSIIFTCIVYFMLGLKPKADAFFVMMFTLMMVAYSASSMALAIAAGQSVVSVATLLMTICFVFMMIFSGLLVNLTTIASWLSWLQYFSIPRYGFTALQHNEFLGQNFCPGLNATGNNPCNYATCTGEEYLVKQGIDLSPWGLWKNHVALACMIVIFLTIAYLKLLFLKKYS

Consider 2 compounds from ChEMBL document CHEMBL5126555, “Targeting breast cancer resistance protein (BCRP/ABCG2): Functional inhibitors and expression modulators” (Eur J Med Chem, 2022).

In assay [1] the target is T1, Broad substrate specificity ATP-binding cassette transporter ABCG2 (Homo sapiens, UniProt Q9UNQ0).
In assay [2] the target is T1, Broad substrate specificity ATP-binding cassette transporter ABCG2. As to the kind of experiment: Inhibition of ABCG2 (unknown origin) expressed in human HEK293 cells membrane vesicles assessed inhibition of BCRP- mediated transport of 3[H]-E1S for 1 mins using [3H]-estrone sulfate as substrate by rapid filtration technique. The format is cell membranes, Membrane vesicle.

Molecules are shown by their SMILES.

On to `COc1cc2ncnc(Nc3ccc(F)c(Cl)c3)c2cc1OCCCN1CCOCC1` [GEFITINIB], for which the IC50 in assay [1] was found to be 0.5 µM.
`CO[C@H]1/C=C/O[C@@]2(C)Oc3c(C)c(O)c4c(O)c(c(/C=N/N5CCN(C)CC5)c(O)c4c3C2=O)NC(=O)/C(C)=C\C=C\[C@H](C)[C@H](O)[C@@H](C)[C@@H](O)[C@@H](C)[C@H](OC(C)=O)[C@@H]1C` [RIFAMPIN] displayed an IC50 in assay [2] of 56 µM.
